Results reported in patent US7477053B2, “Detection of electromagnetic fields” (priority 1994, dated 2009).

Test system: pig liver chromatin

CNCCC(Oc1ccc(C(F)(F)F)cc1)c1ccccc1 (stereo not shown) [fluoxetine]
Metabolized by pig liver chromatin: +
